How the values were obtained:
[1] = test system: acetylcholinesterase activity of brain homogenate; settings: Hangover study, 1 Day alcohol; ingredient amounts in mass concentration (%)
[2] = test system: Monocyte chemoattractant protein-1 (MCP-1) from brain homogenate; assay: CNS study, MCP-1 from brain homogenate, alcohol 5 days; assay type: in vivo, Wistar albino rats; settings: Pro: Protection (%), rats, alcohol 5 Day
Interferon gamma (IFN-γ) = assay: CNS/immunology study, serum IFN-gamma, alcohol 5 days; assay type: in vivo, Wistar albino rats; settings: Pro: Protection (%), rats, alcohol 5 Day
Description: Distilled ethanol was obtained from Bengal Chemicals, West Bengal, India. Biochemical kits like AST, ALT, ALP and total protein were obtained from Span Diagnostics Ltd. Surat, India. Rat IL-12 ELISA kit (Elabscience Biotechnology Co. Ltd, WuHan, P.R.C.), Rat CRP ELISA kit (BD Biosciences, USA), Rat IFN-gamma ELISA kit (Biolegend, San Diego, Calif.) Rat MCP-1 ELISA kit (Elabscience Biotechnology Co. Ltd, WuHan, P.R.C.). All the chemicals used in the present study were of analytical grade and obtained from the following companies: Sigma (St. Louis, Mo., USA), Merck (Mumbai, India), S D fine chemicals (Mumbai, India) and Qualigen (Mumbai, India).
(§1) For hangover, 1 day immunology parameter were considered and for CNS, 5 days immunology parameter were considered.

[3] = test system: interleukin-12 (IL-12) from brain homogenate; assay: CNS study, IL-12 from brain homogenate, alcohol 5 days; assay type: in vivo, Wistar albino rats; settings: Pro: Protection (%), rats, alcohol 5 Day
interleukin-12 (IL-12) = assay: Hangover study, serum IL-12, alcohol 1 day; assay type: in vivo, Wistar albino rats; design: concentration or dose not given beside the values; settings: 1 Day alcohol
Description: as §1

[4] = test system: serum C-reactive protein (CRP); assay: CNS/immunology study, serum CRP, alcohol 5 days; assay type: in vivo, Wistar albino rats; settings: Pro: Protection (%), rats, alcohol 5 Day
Description: as §1

[5] = test system: interleukin-12 (IL-12) from brain homogenate; assay: Hangover study, IL-12 from brain homogenate, alcohol 1 day; assay type: in vivo, Wistar albino rats; design: concentration or dose not given beside the values; settings: 1 Day alcohol
[6] = test system: Monocyte chemoattractant protein-1 (MCP-1) from brain homogenate; assay: Hangover study, MCP-1 from brain homogenate, alcohol 1 day; assay type: in vivo, Wistar albino rats; settings: 1 Day alcohol

C[C@H](N)C(=O)N[C@@H](CCC(N)=O)C(=O)O [1 DP, L-Ala-L-Gln]
ACHe Pro (Protection) [1]: 19.76%
Brain MCP-1 Pro [2]: 11.28%

C[C@H](N)C(=O)N[C@@H](CCC(N)=O)C(=O)O [1.5 DP, L-Ala-L-Gln]
IFN-Gamma Pro (Interferon gamma (IFN-γ)): 12.82%
Brain MCP-1 Pro [2]: 18.23%
Brain IL12 Pro [3]: 15.94%

C[C@H](N)C(=O)N[C@@H](CCC(N)=O)C(=O)O [1.25 DP, L-Ala-L-Gln]
IL12 Pro (Protection) (interleukin-12 (IL-12)): 14.95%
Brain MCP-1 Pro [2]: 17.21%
CRP Pro [4]: 15.22%

C[C@H](N)C(=O)N[C@@H](CCC(N)=O)C(=O)O [2.0 DP, L-Ala-L-Gln]
Brain IL12 Pro [3]: 25.08%

C[C@H](N)C(=O)N[C@@H](CCC(N)=O)C(=O)O [3 DP, L-Ala-L-Gln]
Brain IL12 Pro (Protection) [5]: 35.21%
Brain MCP-1 Pro (Protection) [6]: 33.29%
Brain MCP-1 Pro [2]: 36.58%

— patent US10456359B2, “Synergistic beverage composition” (Harsha Chigurupati, priority 2015, dated 2019)
